Activity calls are given as the source filed them. Cut-off read from the data, not from the text of the source: active = EC50 of 10 µM or less and inactive = more.
How the values were obtained:
[1] = target: Peroxisome proliferator-activated receptor gamma/Nuclear receptor coactivator 2 (Homo sapiens, UniProt P37231); experiment: TR-FRET dose response biochemical High Throughput Screening assay for agonists of the steroid receptor coactivator 2 (SRC-2) recruitment by the peroxisome proliferator-activated receptor gamma (PPAR gamma): non-selective agonists. [Related pubchem assays: 1297, 1032 ]; type: functional
[2] = target: Peroxisome proliferator-activated receptor gamma/Nuclear receptor coactivator 1 (Homo sapiens, UniProt P37231); experiment: TR-FRET dose response biochemical High Throughput Screening assay for agonists of the steroid receptor coactivator 1 (SRC-1) recruitment by the peroxisome proliferator-activated receptor gamma (PPAR gamma): non-selective agonists. [Related pubchem assays (depositor defined):AID1300, AID1808, AID504735, AID631]; type: protein assay
[3] = target: Peroxisome proliferator-activated receptor gamma/Nuclear receptor coactivator 3 (Homo sapiens, UniProt P37231); experiment: TR-FRET dose response biochemical High Throughput Screening assay for agonists of the steroid receptor coactivator 3 (SRC-3) recruitment by the peroxisome proliferator-activated receptor gamma (PPAR gamma): non-selective agonists. [Related pubchem assays: 1301 (Confirmation screen.), 1048 (Primary screen.)]; type: functional

Amino acid sequences for entries named in this document (tags omitted). A change or cut given only in a name is not applied to a line headed by its entry.
UniProt P37231: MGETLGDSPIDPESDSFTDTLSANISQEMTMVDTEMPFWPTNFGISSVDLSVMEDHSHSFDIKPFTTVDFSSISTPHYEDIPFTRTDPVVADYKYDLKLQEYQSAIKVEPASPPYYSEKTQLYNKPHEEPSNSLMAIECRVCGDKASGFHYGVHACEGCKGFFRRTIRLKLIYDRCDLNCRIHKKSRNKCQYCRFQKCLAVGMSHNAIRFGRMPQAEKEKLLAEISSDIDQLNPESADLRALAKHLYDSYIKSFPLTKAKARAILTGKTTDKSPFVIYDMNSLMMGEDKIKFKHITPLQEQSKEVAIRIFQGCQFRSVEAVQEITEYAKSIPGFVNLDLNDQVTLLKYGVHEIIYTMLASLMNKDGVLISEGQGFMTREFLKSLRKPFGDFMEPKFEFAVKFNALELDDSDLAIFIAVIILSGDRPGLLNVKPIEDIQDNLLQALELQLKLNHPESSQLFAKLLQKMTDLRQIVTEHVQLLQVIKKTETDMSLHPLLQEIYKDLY

Measured: EC50

CN(C)c1ccc2nc3ccc(=[N+](C)C)cc-3sc2c1 [METHYLENE BLUE ANHYDROUS]
active: [1] 742 nM | [2] 958 nM | [3] 3060 nM

Source: ChEMBL document CHEMBL1201862, “PubChem BioAssay data set” (2004)
